{"source": "PubChem BioAssay (NCI)", "assay_in_all_cases": "NCI-60 cell line screen, 48 h", "key": {"786-0 renal": {"system": "786-0 renal"}, "A549 NSCLC": {"system": "A549 NSCLC"}, "ACHN renal": {"system": "ACHN renal"}, "BT-549 breast": {"system": "BT-549 breast"}, "CAKI-1 renal": {"system": "CAKI-1 renal"}, "CCRF-CEM leukemia": {"system": "CCRF-CEM leukemia"}, "COLO 205 colon": {"system": "COLO 205 colon"}, "DU-145 prostate": {"system": "DU-145 prostate"}, "EKVX NSCLC": {"system": "EKVX NSCLC"}, "HCT-116 colon": {"system": "HCT-116 colon"}, "HCT-15 colon": {"system": "HCT-15 colon"}, "HL-60(TB) leukemia": {"system": "HL-60(TB) leukemia"}, "HOP-62 NSCLC": {"system": "HOP-62 NSCLC"}, "HOP-92 NSCLC": {"system": "HOP-92 NSCLC"}, "HS 578T breast": {"system": "HS 578T breast"}, "HT29 colon": {"system": "HT29 colon"}, "IGROV1 ovarian": {"system": "IGROV1 ovarian"}, "KM12 colon": {"system": "KM12 colon"}, "LOX IMVI melanoma": {"system": "LOX IMVI melanoma"}, "M14 melanoma": {"system": "M14 melanoma"}, "MALME-3M melanoma": {"system": "MALME-3M melanoma"}, "MCF7 breast": {"system": "MCF7 breast"}, "MDA-MB-231 breast": {"system": "MDA-MB-231 breast"}, "MDA-MB-435": {"system": "MDA-MB-435"}, "MDA-N": {"system": "MDA-N"}, "MOLT-4 leukemia": {"system": "MOLT-4 leukemia"}, "NCI-H226 lung": {"system": "NCI-H226 lung"}}, "note": "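Protocol summary: plate cells (96-well), add compound at 5 concentrations, incubate 48 h, interpolate endpoints linearly. Here, GI50 denotes the concentration required for 50% inhibition of growth. TGI marks complete inhibition of growth.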"}
{"molecule": "O=c1[nH]c2c(N/N=C/c3ccc([N+](=O)[O-])o3)c([N+](=O)[O-])c(N/N=C/c3ccc([N+](=O)[O-])o3)c([N+](=O)[O-])c2[nH]1", "values": [{"measurement": "GI50", "setting": "786-0 renal", "result": 2.04, "unit": "µM"}, {"measurement": "TGI", "setting": "786-0 renal", "result": 11.4, "unit": "µM"}, {"measurement": "GI50", "setting": "A549 NSCLC", "result": 26.8, "unit": "µM"}, {"measurement": "TGI", "setting": "A549 NSCLC", "result": 76.9, "unit": "µM"}, {"measurement": "GI50", "setting": "ACHN renal", "result": 3.23, "unit": "µM"}, {"measurement": "TGI", "setting": "ACHN renal", "result": 10.2, "unit": "µM"}, {"measurement": "GI50", "setting": "BT-549 breast", "result": 2.84, "unit": "µM"}, {"measurement": "TGI", "setting": "BT-549 breast", "result": 10.4, "unit": "µM"}, {"measurement": "GI50", "setting": "CAKI-1 renal", "result": 6.68, "unit": "µM"}, {"measurement": "TGI", "setting": "CAKI-1 renal", "result": 25.5, "unit": "µM"}, {"measurement": "GI50", "setting": "CCRF-CEM leukemia", "result": 0.573, "unit": "µM"}, {"measurement": "TGI", "setting": "CCRF-CEM leukemia", "result": 2.96, "unit": "µM"}, {"measurement": "GI50", "setting": "COLO 205 colon", "result": 2.71, "unit": "µM"}, {"measurement": "TGI", "setting": "COLO 205 colon", "result": 8.37, "unit": "µM"}, {"measurement": "GI50", "setting": "DU-145 prostate", "result": 3.21, "unit": "µM"}, {"measurement": "TGI", "setting": "DU-145 prostate", "result": 14.1, "unit": "µM"}, {"measurement": "GI50", "setting": "EKVX NSCLC", "result": 14.8, "unit": "µM"}, {"measurement": "TGI", "setting": "EKVX NSCLC", "result": 30.2, "unit": "µM"}, {"measurement": "GI50", "setting": "HCT-116 colon", "result": 6.43, "unit": "µM"}, {"measurement": "TGI", "setting": "HCT-116 colon", "result": 21.6, "unit": "µM"}, {"measurement": "GI50", "setting": "HCT-15 colon", "result": 1.9, "unit": "µM"}, {"measurement": "TGI", "setting": "HCT-15 colon", "result": 4.89, "unit": "µM"}, {"measurement": "GI50", "setting": "HL-60(TB) leukemia", "result": 12, "unit": "µM"}, {"measurement": "TGI", "setting": "HL-60(TB) leukemia", "result": 51.4, "unit": "µM"}, {"measurement": "GI50", "setting": "HOP-62 NSCLC", "result": 1.92, "unit": "µM"}, {"measurement": "TGI", "setting": "HOP-62 NSCLC", "result": 10, "unit": "µM"}, {"measurement": "GI50", "setting": "HOP-92 NSCLC", "result": 5.11, "unit": "µM"}, {"measurement": "TGI", "setting": "HOP-92 NSCLC", "result": 17.9, "unit": "µM"}, {"measurement": "GI50", "setting": "HS 578T breast", "result": 8.59, "unit": "µM"}, {"measurement": "TGI", "setting": "HS 578T breast", "result": "> 100", "unit": "µM"}, {"measurement": "GI50", "setting": "HT29 colon", "result": 3.15, "unit": "µM"}, {"measurement": "TGI", "setting": "HT29 colon", "result": 14, "unit": "µM"}, {"measurement": "GI50", "setting": "IGROV1 ovarian", "result": 6.2, "unit": "µM"}, {"measurement": "TGI", "setting": "IGROV1 ovarian", "result": 18.6, "unit": "µM"}, {"measurement": "GI50", "setting": "KM12 colon", "result": 6.01, "unit": "µM"}, {"measurement": "TGI", "setting": "KM12 colon", "result": 20.8, "unit": "µM"}, {"measurement": "GI50", "setting": "LOX IMVI melanoma", "result": 3.77, "unit": "µM"}, {"measurement": "TGI", "setting": "LOX IMVI melanoma", "result": 14.7, "unit": "µM"}, {"measurement": "GI50", "setting": "M14 melanoma", "result": 4.64, "unit": "µM"}, {"measurement": "TGI", "setting": "M14 melanoma", "result": 18.8, "unit": "µM"}, {"measurement": "GI50", "setting": "MALME-3M melanoma", "result": 11.6, "unit": "µM"}, {"measurement": "TGI", "setting": "MALME-3M melanoma", "result": 25.1, "unit": "µM"}, {"measurement": "GI50", "setting": "MCF7 breast", "result": 1.32, "unit": "µM"}, {"measurement": "TGI", "setting": "MCF7 breast", "result": 4.1, "unit": "µM"}, {"measurement": "GI50", "setting": "MDA-MB-231 breast", "result": 11.9, "unit": "µM"}, {"measurement": "TGI", "setting": "MDA-MB-231 breast", "result": 27.7, "unit": "µM"}, {"measurement": "GI50", "setting": "MDA-MB-435", "result": 2.7, "unit": "µM"}, {"measurement": "TGI", "setting": "MDA-MB-435", "result": 7.35, "unit": "µM"}, {"measurement": "GI50", "setting": "MDA-N", "result": 3.73, "unit": "µM"}, {"measurement": "TGI", "setting": "MDA-N", "result": 19.1, "unit": "µM"}, {"measurement": "GI50", "setting": "MOLT-4 leukemia", "result": 1.24, "unit": "µM"}, {"measurement": "TGI", "setting": "MOLT-4 leukemia", "result": 16.6, "unit": "µM"}, {"measurement": "GI50", "setting": "NCI-H226 lung", "result": 5.7, "unit": "µM"}]}
